Sequences of proteins named here, by UniProt entry; tags and fusion partners are left off.
UniProt Q13422, whole entry: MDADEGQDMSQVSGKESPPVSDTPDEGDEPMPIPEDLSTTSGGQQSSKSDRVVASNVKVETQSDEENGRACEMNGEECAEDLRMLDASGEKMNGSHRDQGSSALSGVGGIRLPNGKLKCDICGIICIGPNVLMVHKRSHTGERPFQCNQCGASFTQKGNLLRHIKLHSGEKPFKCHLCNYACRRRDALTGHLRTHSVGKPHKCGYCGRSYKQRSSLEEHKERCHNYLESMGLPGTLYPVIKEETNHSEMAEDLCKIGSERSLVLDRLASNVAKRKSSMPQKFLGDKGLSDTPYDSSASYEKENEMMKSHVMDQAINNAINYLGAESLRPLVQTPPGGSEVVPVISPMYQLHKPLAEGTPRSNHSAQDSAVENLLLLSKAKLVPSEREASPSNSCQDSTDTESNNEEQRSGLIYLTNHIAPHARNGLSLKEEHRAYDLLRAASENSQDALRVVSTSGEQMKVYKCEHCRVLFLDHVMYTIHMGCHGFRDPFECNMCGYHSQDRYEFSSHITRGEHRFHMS
UniProt Q96SW2, whole entry: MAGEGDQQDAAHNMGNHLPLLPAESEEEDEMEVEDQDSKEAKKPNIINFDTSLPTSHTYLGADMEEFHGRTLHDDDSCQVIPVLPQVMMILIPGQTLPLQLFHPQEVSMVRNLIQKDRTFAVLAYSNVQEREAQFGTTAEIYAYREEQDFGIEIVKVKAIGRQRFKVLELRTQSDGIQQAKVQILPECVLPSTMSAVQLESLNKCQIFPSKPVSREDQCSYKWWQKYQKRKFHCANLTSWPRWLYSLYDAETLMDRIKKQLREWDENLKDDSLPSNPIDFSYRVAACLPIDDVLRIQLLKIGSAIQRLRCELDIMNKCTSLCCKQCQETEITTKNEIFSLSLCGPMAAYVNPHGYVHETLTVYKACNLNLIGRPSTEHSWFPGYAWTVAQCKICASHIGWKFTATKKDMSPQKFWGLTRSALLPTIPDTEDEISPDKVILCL
UniProt P15170, whole entry: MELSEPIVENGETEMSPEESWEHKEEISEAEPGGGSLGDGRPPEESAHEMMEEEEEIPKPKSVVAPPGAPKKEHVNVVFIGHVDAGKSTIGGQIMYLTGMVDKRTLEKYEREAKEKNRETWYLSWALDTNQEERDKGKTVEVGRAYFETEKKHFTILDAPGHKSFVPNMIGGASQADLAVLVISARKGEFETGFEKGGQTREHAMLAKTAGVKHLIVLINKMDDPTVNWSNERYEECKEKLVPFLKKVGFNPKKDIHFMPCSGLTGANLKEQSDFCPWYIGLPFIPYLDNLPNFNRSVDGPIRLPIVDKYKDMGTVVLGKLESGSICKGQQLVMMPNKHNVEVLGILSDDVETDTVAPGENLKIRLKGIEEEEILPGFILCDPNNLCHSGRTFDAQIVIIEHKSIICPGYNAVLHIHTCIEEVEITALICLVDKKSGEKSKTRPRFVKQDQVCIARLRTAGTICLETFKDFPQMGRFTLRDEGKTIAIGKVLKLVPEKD
UniProt Q9UKT9, whole entry: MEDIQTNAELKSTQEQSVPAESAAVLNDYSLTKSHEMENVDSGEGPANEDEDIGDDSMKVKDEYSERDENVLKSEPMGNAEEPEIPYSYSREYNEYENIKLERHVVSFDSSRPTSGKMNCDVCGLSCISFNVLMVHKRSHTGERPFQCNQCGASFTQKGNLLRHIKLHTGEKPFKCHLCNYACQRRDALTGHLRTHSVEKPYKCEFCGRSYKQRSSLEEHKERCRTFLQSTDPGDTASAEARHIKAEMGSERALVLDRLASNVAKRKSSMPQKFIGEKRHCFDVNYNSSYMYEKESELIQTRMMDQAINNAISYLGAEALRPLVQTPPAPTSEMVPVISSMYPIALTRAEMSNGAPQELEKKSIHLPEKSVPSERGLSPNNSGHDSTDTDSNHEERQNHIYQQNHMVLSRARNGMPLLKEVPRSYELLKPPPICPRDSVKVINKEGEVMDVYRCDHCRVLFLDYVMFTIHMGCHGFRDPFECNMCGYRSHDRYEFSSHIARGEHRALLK
UniProt P48729, whole entry: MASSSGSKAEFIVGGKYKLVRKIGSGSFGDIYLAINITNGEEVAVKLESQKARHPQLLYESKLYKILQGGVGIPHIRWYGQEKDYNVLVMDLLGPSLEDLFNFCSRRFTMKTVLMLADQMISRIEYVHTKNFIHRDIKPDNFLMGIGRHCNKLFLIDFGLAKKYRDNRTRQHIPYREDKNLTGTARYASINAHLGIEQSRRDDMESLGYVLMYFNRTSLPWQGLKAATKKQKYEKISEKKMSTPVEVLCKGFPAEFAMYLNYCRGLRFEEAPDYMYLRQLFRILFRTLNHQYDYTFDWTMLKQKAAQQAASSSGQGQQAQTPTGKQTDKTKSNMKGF
UniProt Q9UKS7, whole entry: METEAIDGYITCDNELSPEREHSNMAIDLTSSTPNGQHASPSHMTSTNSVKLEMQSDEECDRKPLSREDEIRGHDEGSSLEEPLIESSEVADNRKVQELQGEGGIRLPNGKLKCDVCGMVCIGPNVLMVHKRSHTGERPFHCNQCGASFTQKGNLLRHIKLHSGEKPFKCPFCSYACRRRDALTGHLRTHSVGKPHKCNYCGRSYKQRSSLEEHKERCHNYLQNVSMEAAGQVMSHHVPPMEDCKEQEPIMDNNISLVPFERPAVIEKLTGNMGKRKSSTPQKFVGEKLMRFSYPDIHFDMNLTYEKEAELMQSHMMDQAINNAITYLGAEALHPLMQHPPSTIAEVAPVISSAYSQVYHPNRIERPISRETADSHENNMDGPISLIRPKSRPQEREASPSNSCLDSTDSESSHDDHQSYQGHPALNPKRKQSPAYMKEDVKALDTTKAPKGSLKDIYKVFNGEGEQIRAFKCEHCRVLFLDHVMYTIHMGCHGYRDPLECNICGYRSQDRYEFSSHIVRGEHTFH
UniProt P30291, whole entry: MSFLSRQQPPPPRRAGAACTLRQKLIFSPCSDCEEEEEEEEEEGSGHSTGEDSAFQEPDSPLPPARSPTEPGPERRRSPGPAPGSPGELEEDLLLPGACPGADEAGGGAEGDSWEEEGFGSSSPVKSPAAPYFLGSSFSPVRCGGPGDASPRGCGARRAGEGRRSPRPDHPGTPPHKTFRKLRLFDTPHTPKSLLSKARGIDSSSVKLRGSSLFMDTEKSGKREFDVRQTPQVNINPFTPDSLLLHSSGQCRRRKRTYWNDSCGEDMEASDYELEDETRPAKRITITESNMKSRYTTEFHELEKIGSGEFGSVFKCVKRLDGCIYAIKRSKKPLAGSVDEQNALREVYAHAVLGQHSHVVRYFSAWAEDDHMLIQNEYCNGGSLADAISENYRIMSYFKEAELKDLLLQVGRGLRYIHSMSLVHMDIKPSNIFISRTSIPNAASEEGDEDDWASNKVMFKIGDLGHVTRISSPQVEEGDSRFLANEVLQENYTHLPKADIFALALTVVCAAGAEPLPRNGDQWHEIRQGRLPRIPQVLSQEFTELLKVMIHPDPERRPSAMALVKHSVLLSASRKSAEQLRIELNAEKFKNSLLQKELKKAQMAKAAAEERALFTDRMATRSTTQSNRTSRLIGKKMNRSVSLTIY
UniProt Q16531, whole entry partner: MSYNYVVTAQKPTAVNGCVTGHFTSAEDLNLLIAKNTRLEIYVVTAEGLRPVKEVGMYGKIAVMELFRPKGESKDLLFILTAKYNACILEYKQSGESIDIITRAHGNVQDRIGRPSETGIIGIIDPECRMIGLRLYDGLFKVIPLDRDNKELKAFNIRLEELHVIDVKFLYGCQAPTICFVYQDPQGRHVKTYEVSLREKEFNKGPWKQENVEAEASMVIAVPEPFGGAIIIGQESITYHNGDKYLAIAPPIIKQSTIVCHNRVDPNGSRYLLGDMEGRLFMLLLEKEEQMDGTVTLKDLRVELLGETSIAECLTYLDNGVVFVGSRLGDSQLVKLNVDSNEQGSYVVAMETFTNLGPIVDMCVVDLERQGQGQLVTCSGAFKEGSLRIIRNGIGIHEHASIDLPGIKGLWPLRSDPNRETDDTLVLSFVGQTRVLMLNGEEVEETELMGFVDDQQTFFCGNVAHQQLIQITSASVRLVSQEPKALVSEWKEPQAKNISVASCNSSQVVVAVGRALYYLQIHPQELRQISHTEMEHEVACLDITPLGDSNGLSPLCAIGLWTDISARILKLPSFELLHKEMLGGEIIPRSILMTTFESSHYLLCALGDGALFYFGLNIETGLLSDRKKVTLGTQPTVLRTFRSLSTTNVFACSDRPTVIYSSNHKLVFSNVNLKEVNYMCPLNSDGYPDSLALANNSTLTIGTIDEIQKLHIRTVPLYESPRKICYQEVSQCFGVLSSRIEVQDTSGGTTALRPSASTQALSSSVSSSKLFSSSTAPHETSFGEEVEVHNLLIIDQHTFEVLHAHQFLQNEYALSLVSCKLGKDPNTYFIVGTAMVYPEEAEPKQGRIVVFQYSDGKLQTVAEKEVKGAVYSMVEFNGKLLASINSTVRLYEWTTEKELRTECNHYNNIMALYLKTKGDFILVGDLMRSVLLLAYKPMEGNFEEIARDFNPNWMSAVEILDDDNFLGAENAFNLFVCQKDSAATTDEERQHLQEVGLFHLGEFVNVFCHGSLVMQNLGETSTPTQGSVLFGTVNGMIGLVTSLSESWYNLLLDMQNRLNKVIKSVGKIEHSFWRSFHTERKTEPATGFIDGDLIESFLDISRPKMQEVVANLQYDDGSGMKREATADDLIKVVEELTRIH

According to patent EP4834897A1, “COMPOUNDS WITH TWO AZAHETEROCYCLES SUBSTITUTED ISOINDOLINONE SKELETON AND USES THEREOF” (dated 2026):

What follows are compounds tested on IL-2 (assay: Inflammatory cytokine release from PBMCs induced by PHA (flow cytometry CBA)). Conditions: 0.1 µM; PBMCs, PHA 1 µg/mL, 24 h.

SMILES | Inhibition Rate (%) IL-2
O=C1CCN(N2C(=O)c3ccc(CN4CCC(N5CCC(c6noc7cc(F)ccc67)CC5)C(F)(F)C4)cc3C2=O)C(=O)N1 (stereo not shown) | IV9 (40% < IV9 ≤ 50%)
O=C1CCC(N2Cc3cccc(CN4CCC(N5CCN(c6noc7cc(F)ccc67)CC5)C(F)(F)C4)c3C2=O)C(=O)N1 (stereo not shown) | IV10 (50% < IV 10 ≤ 60%)
CC1(C)CCC(C(=O)N2CCN(C3CCN(C(=O)c4ccc5c(c4)CN(C4CCC(=O)NC4=O)C5=O)CC3(F)F)CC2)=C(c2ccc(Cl)cc2)C1 (stereo not shown) | IV7 (20% < IV7 ≤ 30%)
O=C1CCN(N2C(=O)c3ccc(CN4CCC(N5CCN(C(c6ccccc6)c6ccccc6)CC5)C(F)(F)C4)cc3C2=O)C(=O)N1 (stereo not shown) | IV11 (60% < IV11 ≤ 70%)
O=C1CCC(N2Cc3cc(CN4CCC(N5CCN(c6noc7cc(F)ccc67)CC5)CC4)ccc3C2=S)C(=O)N1 (stereo not shown) | IV9 (40% < IV9 ≤ 50%)
O=C1CCC(N2Cc3ccc(CN4CCC(N5CCN(C(c6ccccc6)c6ccccc6)CC5)CC4)cc3C2=S)C(=O)N1 (stereo not shown) | IV9 (40% < IV9 ≤ 50%)
O=C1CCC(N2Cc3cccc(C(=O)N4CCC(N5CCN(C(c6ccccc6)c6ccccc6)CC5)C(F)(F)C4)c3C2=O)C(=O)N1 (stereo not shown) | IV9 (40% < IV9 ≤ 50%)

Same assay, conditions: 1 µM; PBMCs, PHA 1 µg/mL, 24 h

SMILES | Inhibition Rate (%) IL-2
O=C1CCN(N2C(=O)c3ccc(CN4CCC(N5CCC(c6noc7cc(F)ccc67)CC5)C(F)(F)C4)cc3C2=O)C(=O)N1 (stereo not shown) | IV8 (30% < IV8 ≤ 40%)
O=C1CCC(N2Cc3cccc(CN4CCC(N5CCN(c6noc7cc(F)ccc67)CC5)C(F)(F)C4)c3C2=O)C(=O)N1 (stereo not shown) | IV9 (40% < IV9 ≤ 50%)
CC1(C)CCC(C(=O)N2CCN(C3CCN(C(=O)c4ccc5c(c4)CN(C4CCC(=O)NC4=O)C5=O)CC3(F)F)CC2)=C(c2ccc(Cl)cc2)C1 (stereo not shown) | IV1 0
O=C1CCN(N2C(=O)c3ccc(CN4CCC(N5CCN(C(c6ccccc6)c6ccccc6)CC5)C(F)(F)C4)cc3C2=O)C(=O)N1 (stereo not shown) | IV1 1
O=C1CCC(N2Cc3cc(CN4CCC(N5CCN(c6noc7cc(F)ccc67)CC5)CC4)ccc3C2=S)C(=O)N1 (stereo not shown) | IV7 (20% < IV7 ≤ 30%)
O=C1CCC(N2Cc3ccc(CN4CCC(N5CCN(C(c6ccccc6)c6ccccc6)CC5)CC4)cc3C2=S)C(=O)N1 (stereo not shown) | IV9 (40% < IV9 ≤ 50%)
O=C1CCC(N2Cc3cccc(C(=O)N4CCC(N5CCN(C(c6ccccc6)c6ccccc6)CC5)C(F)(F)C4)c3C2=O)C(=O)N1 (stereo not shown) | IV9 (40% < IV9 ≤ 50%)

What follows are compounds tested against IKZF1 (Homo sapiens, UniProt Q13422+Q96SW2) (assay: Western blot assay of substrate protein degradation in hPBMCs). Conditions: 24 hours treatment, compounds at 50 nM and 500 nM (concentration behind the class not stated).

SMILES | substrate protein remaining % (IKZF 1)
O=C1CCN(N2C(=O)c3ccc(CN4CCC(N5CCC(c6noc7cc(F)ccc67)CC5)C(F)(F)C4)cc3C2=O)C(=O)N1 (stereo not shown) | A (0% ≤ substrate protein remaining % ≤ 80%)

Each compound was assayed against GSPT1 (Homo sapiens, UniProt P15170+Q96SW2) in the same assay as above. Conditions: 24 hours treatment, compounds at 50 nM and 500 nM (concentration behind the class not stated).

SMILES | substrate protein remaining % (GSPT1)
O=C1CCN(N2C(=O)c3ccc(CN4CCC(N5CCC(c6noc7cc(F)ccc67)CC5)C(F)(F)C4)cc3C2=O)C(=O)N1 (stereo not shown) | B (80%< substrate protein remaining %≤ 100%)

These compounds were tested against IKZF3 (Homo sapiens, UniProt Q96SW2+Q9UKT9) in the same assay as above. Conditions: 24 hours treatment, compounds at 50 nM and 500 nM (concentration behind the class not stated).

SMILES | substrate protein remaining % (IKZF3)
O=C1CCN(N2C(=O)c3ccc(CN4CCC(N5CCC(c6noc7cc(F)ccc67)CC5)C(F)(F)C4)cc3C2=O)C(=O)N1 (stereo not shown) | B (80%< substrate protein remaining %≤ 100%)

Each compound was assayed against CK1α (Homo sapiens, UniProt P48729+Q96SW2) in the same assay as above. Conditions: 24 hours treatment, compounds at 50 nM and 500 nM (concentration behind the class not stated).

SMILES | substrate protein remaining % (CK1a)
O=C1CCN(N2C(=O)c3ccc(CN4CCC(N5CCC(c6noc7cc(F)ccc67)CC5)C(F)(F)C4)cc3C2=O)C(=O)N1 (stereo not shown) | B (80%< substrate protein remaining %≤ 100%)

The compounds below were run against IKZF2 (Homo sapiens, UniProt Q96SW2+Q9UKS7) in the same assay as above. Conditions: 24 hours treatment, compounds at 50 nM and 500 nM (concentration behind the class not stated).

SMILES | substrate protein remaining % (IKZF2)
O=C1CCN(N2C(=O)c3ccc(CN4CCC(N5CCC(c6noc7cc(F)ccc67)CC5)C(F)(F)C4)cc3C2=O)C(=O)N1 (stereo not shown) | A (0% ≤ substrate protein remaining % ≤ 80%)

Each compound was assayed against WEE1 (Homo sapiens, UniProt P30291+Q96SW2) in the same assay as above. Conditions: 24 hours treatment, compounds at 50 nM and 500 nM (concentration behind the class not stated).

SMILES | substrate protein remaining % (WEE1)
O=C1CCN(N2C(=O)c3ccc(CN4CCC(N5CCC(c6noc7cc(F)ccc67)CC5)C(F)(F)C4)cc3C2=O)C(=O)N1 (stereo not shown) | A (0% ≤ substrate protein remaining % ≤ 80%)

What follows are compounds tested against CRBN (Homo sapiens, UniProt Q96SW2) (assay: CRBN binding affinity by HTRF (CEREBLON BINDING kit)). Conditions: CRBN binding, HTRF, compound at 0.5 µM.

SMILES | Inhibition Rate at 0.5 µM (%)
O=C1CCC(N2Cc3cccc(CN4CCC(N5CCN(c6noc7cc(F)ccc67)CC5)C(F)(F)C4)c3C2=O)C(=O)N1 (stereo not shown) | a4 (40% < a4 ≤ 53%)
CC1(C)CCC(C(=O)N2CCN(C3CCN(C(=O)c4ccc5c(c4)CN(C4CCC(=O)NC4=O)C5=O)CC3(F)F)CC2)=C(c2ccc(Cl)cc2)C1 (stereo not shown) | a6 (60% < a6 ≤ 70%)
O=C1CCC(N2Cc3cc(CN4CCC(N5CCN(c6noc7cc(F)ccc67)CC5)CC4)ccc3C2=S)C(=O)N1 (stereo not shown) | a4 (40% < a4 ≤ 53%)
O=C1CCC(N2Cc3ccc(CN4CCC(N5CCN(C(c6ccccc6)c6ccccc6)CC5)CC4)cc3C2=S)C(=O)N1 (stereo not shown) | a3 (30% < a3 ≤ 40%)

Same assay, conditions: CRBN binding, HTRF, compound at 2 µM

SMILES | Inhibition Rate at 2 µM (%)
O=C1CCC(N2Cc3cccc(CN4CCC(N5CCN(c6noc7cc(F)ccc67)CC5)C(F)(F)C4)c3C2=O)C(=O)N1 (stereo not shown) | a8 (80% < a8 ≤100%)
CC1(C)CCC(C(=O)N2CCN(C3CCN(C(=O)c4ccc5c(c4)CN(C4CCC(=O)NC4=O)C5=O)CC3(F)F)CC2)=C(c2ccc(Cl)cc2)C1 (stereo not shown) | a8 (80% < a8 ≤100%)
O=C1CCC(N2Cc3cc(CN4CCC(N5CCN(c6noc7cc(F)ccc67)CC5)CC4)ccc3C2=S)C(=O)N1 (stereo not shown) | a8 (80% < a8 ≤100%)
O=C1CCC(N2Cc3ccc(CN4CCC(N5CCN(C(c6ccccc6)c6ccccc6)CC5)CC4)cc3C2=S)C(=O)N1 (stereo not shown) | a7 (70% < a7 ≤80%)
